In PubChem BioAssay (NCI):
Several values for one entry are separate records, joined by “and”; a condition that tells them apart may be missing. Equal values may be shown once.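 A five-concentration, 48-hour dose response in 96-well plates underlies each endpoint, interpolated linearly between surrounding concentrations. GI50: concentration for 50% inhibition of growth. TGI: total growth inhibition.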

Tests used:
Test in all cases: inhibition of tumour cell growth, NCI panel, 48 h
HOP-92 NSCLC = tested on: HOP-92 NSCLC
K-562 leukemia = tested on: K-562 leukemia
UACC-257 melanoma = tested on: UACC-257 melanoma
HCT-15 colon = tested on: HCT-15 colon
MCF7 breast = tested on: MCF7 breast
SK-MEL-28 melanoma = tested on: SK-MEL-28 melanoma
IGROV1 ovarian = tested on: IGROV1 ovarian
LOX IMVI melanoma = tested on: LOX IMVI melanoma
HT29 colon = tested on: HT29 colon
RPMI-8226 leukemia = tested on: RPMI-8226 leukemia
SN12C renal = tested on: SN12C renal
SNB-75 CNS = tested on: SNB-75 CNS
NCI-H23 lung = tested on: NCI-H23 lung
NCI-H226 lung = tested on: NCI-H226 lung
HOP-62 NSCLC = tested on: HOP-62 NSCLC
MDA-MB-231 breast = tested on: MDA-MB-231 breast
EKVX NSCLC = tested on: EKVX NSCLC
MALME-3M melanoma = tested on: MALME-3M melanoma
A498 renal = tested on: A498 renal
OVCAR-5 ovarian = tested on: OVCAR-5 ovarian
SF-268 CNS = tested on: SF-268 CNS
SF-539 CNS = tested on: SF-539 CNS
SR leukemia = tested on: SR leukemia
UACC-62 melanoma = tested on: UACC-62 melanoma
SK-MEL-2 melanoma = tested on: SK-MEL-2 melanoma
OVCAR-8 ovarian = tested on: OVCAR-8 ovarian
HCT-116 colon = tested on: HCT-116 colon
U251 CNS = tested on: U251 CNS
NCI-H460 lung = tested on: NCI-H460 lung
MDA-N = tested on: MDA-N
NCI/ADR-RES ovarian = tested on: NCI/ADR-RES ovarian
PC-3 prostate = tested on: PC-3 prostate
KM12 colon = tested on: KM12 colon
A549 NSCLC = tested on: A549 NSCLC
T-47D breast = tested on: T-47D breast
HCC-2998 colon = tested on: HCC-2998 colon
OVCAR-3 ovarian = tested on: OVCAR-3 ovarian
MOLT-4 leukemia = tested on: MOLT-4 leukemia
ACHN renal = tested on: ACHN renal
SK-MEL-5 melanoma = tested on: SK-MEL-5 melanoma
HL-60(TB) leukemia = tested on: HL-60(TB) leukemia
UO-31 renal = tested on: UO-31 renal
CAKI-1 renal = tested on: CAKI-1 renal
COLO 205 colon = tested on: COLO 205 colon
NCI-H522 lung = tested on: NCI-H522 lung
HS 578T breast = tested on: HS 578T breast
MDA-MB-435 = tested on: MDA-MB-435
TK-10 renal = tested on: TK-10 renal
CCRF-CEM leukemia = tested on: CCRF-CEM leukemia
SF-295 CNS = tested on: SF-295 CNS
DU-145 prostate = tested on: DU-145 prostate
RXF 393 renal = tested on: RXF 393 renal
NCI-H322M lung = tested on: NCI-H322M lung
786-0 renal = tested on: 786-0 renal
M14 melanoma = tested on: M14 melanoma
OVCAR-4 ovarian = tested on: OVCAR-4 ovarian
SNB-19 CNS = tested on: SNB-19 CNS
BT-549 breast = tested on: BT-549 breast
SW-620 colon = tested on: SW-620 colon

SMILES: CC(=O)OC[C@]12C[C@H](OC(=O)CC(C)C)C(C)=C[C@H]1OC1[C@H](O)[C@@H](OC(C)=O)[C@@]2(C)[C@@]12CO2
- GI50 (HOP-92 NSCLC): 18.2 nM
- TGI (HOP-92 NSCLC): 55.6 nM
- GI50 (K-562 leukemia): 3.49 nM
- TGI (K-562 leukemia): 1280 nM
- GI50 (UACC-257 melanoma): 11.3 nM
- TGI (UACC-257 melanoma): 41.3 nM
- GI50 (HCT-15 colon): 3 nM
- TGI (HCT-15 colon): 9.12 nM
- GI50 (MCF7 breast): 3.22 nM
- TGI (MCF7 breast): > 100000 nM
- GI50 (SK-MEL-28 melanoma): 4.99 nM
- TGI (SK-MEL-28 melanoma): 43.5 nM
- GI50 (IGROV1 ovarian): 5.22 nM
- GI50 (LOX IMVI melanoma): 3.41 nM
- TGI (LOX IMVI melanoma): 9.43 nM
- GI50 (HT29 colon): 3.56 nM
- TGI (HT29 colon): 15 nM
- GI50 (RPMI-8226 leukemia): 4.68 nM
- TGI (RPMI-8226 leukemia): > 100000 nM
- GI50 (SN12C renal): 24.5 nM
- TGI (SN12C renal): 159 nM
- GI50 (SNB-75 CNS): 35.4 nM
- GI50 (NCI-H23 lung): 3.08 nM
- TGI (NCI-H23 lung): 18.3 nM
- GI50 (NCI-H226 lung): 6.71 nM
- TGI (NCI-H226 lung): 32.4 nM
- GI50 (HOP-62 NSCLC): 9.99 nM
- TGI (HOP-62 NSCLC): 129 nM and 28.3 nM
- GI50 (MDA-MB-231 breast): 27 nM
- GI50 (EKVX NSCLC): 15.2 nM
- TGI (EKVX NSCLC): 44.2 nM and 275 nM
- GI50 (MALME-3M melanoma): 4.09 nM
- TGI (MALME-3M melanoma): 36.1 nM
- GI50 (A498 renal): 5.29 nM
- TGI (A498 renal): 28.6 nM
- GI50 (OVCAR-5 ovarian): 41.8 nM
- TGI (OVCAR-5 ovarian): 527 nM
- GI50 (SF-268 CNS): 15.1 nM
- TGI (SF-268 CNS): 68.3 nM
- GI50 (SF-539 CNS): 3.31 nM
- TGI (SF-539 CNS): 8.7 nM
- GI50 (SR leukemia): 3.99 nM
- TGI (SR leukemia): > 100000 nM
- GI50 (UACC-62 melanoma): 10.8 nM
- TGI (UACC-62 melanoma): 42.1 nM
- GI50 (SK-MEL-2 melanoma): 12.3 nM
- TGI (SK-MEL-2 melanoma): 51.7 nM
- GI50 (OVCAR-8 ovarian): 12.6 nM
- GI50 (HCT-116 colon): 3.21 nM
- TGI (HCT-116 colon): 12.9 nM
- GI50 (U251 CNS): 3.13 nM
- GI50 (NCI-H460 lung): 3.27 nM
- TGI (NCI-H460 lung): 11.5 nM
- GI50 (MDA-N): 9.52 nM
- TGI (MDA-N): 40.8 nM
- GI50 (NCI/ADR-RES ovarian): 26.5 nM
- TGI (NCI/ADR-RES ovarian): 199 nM and 784 nM
- GI50 (PC-3 prostate): 14.6 nM
- TGI (PC-3 prostate): 59.6 nM
- GI50 (KM12 colon): 9.83 nM
- GI50 (A549 NSCLC): 4.72 nM
- TGI (A549 NSCLC): 30.7 nM
- GI50 (T-47D breast): 6.11 nM
- TGI (T-47D breast): 36.7 nM
- GI50 (HCC-2998 colon): 2.13 nM
- TGI (HCC-2998 colon): 5.45 nM
- GI50 (OVCAR-3 ovarian): 4.91 nM
- TGI (OVCAR-3 ovarian): 147 nM
- TGI (MOLT-4 leukemia): 129 nM
- GI50 (ACHN renal): 4.45 nM
- TGI (ACHN renal): 23 nM and 12.7 nM
- GI50 (SK-MEL-5 melanoma): 2.74 nM
- TGI (SK-MEL-5 melanoma): 7.17 nM
- GI50 (HL-60(TB) leukemia): 3.84 nM
- TGI (HL-60(TB) leukemia): > 100000 nM
- GI50 (UO-31 renal): 19.5 nM and 13.1 nM
- TGI (UO-31 renal): 158 nM and 1190 nM
- GI50 (CAKI-1 renal): 26.9 nM
- TGI (CAKI-1 renal): 98.4 nM
- GI50 (COLO 205 colon): 7.2 nM
- GI50 (NCI-H522 lung): 3.25 nM
- TGI (NCI-H522 lung): 15 nM
- GI50 (HS 578T breast): 15.1 nM
- GI50 (MDA-MB-435): 5.57 nM
- TGI (MDA-MB-435): 27.5 nM
- GI50 (TK-10 renal): 14.9 nM
- TGI (TK-10 renal): 66.9 nM
- GI50 (CCRF-CEM leukemia): 3.3 nM
- TGI (CCRF-CEM leukemia): 71.7 nM
- GI50 (SF-295 CNS): 14.6 nM
- TGI (SF-295 CNS): 46.3 nM
- GI50 (DU-145 prostate): 33.1 nM
- GI50 (RXF 393 renal): 14 nM
- TGI (RXF 393 renal): 51.3 nM
- GI50 (NCI-H322M lung): 28.9 nM
- TGI (NCI-H322M lung): 167 nM and 24.2 nM
- GI50 (786-0 renal): 19.1 nM
- TGI (786-0 renal): 56.8 nM and 15.8 nM
- GI50 (M14 melanoma): 4.66 nM
- TGI (M14 melanoma): 17.8 nM
- GI50 (OVCAR-4 ovarian): 3.54 nM
- TGI (OVCAR-4 ovarian): 15.7 nM
- GI50 (SNB-19 CNS): 4.11 nM
- TGI (SNB-19 CNS): 104 nM
- GI50 (BT-549 breast): 20.8 nM
- TGI (BT-549 breast): 61.2 nM
- TGI (SW-620 colon): 13200 nM
